Assay results from patent publication US20060189650A1, “Novel piperidine derivatives as modulators of chemokine receptor ccr5” (priority 2002, published 2006).

Sequences of proteins named here, by UniProt entry; tags and fusion partners are left off.
UniProt P51681, whole entry: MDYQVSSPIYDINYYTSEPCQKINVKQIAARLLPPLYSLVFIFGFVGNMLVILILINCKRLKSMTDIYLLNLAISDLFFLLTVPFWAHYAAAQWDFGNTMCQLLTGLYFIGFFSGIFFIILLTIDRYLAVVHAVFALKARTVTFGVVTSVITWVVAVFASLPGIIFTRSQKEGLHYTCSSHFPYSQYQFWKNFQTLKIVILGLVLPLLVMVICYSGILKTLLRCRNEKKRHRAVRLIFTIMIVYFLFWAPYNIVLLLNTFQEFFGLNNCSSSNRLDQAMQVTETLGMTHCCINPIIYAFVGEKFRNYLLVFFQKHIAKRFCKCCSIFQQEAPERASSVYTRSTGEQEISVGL

Target: recombinant human CCR5 receptor (Homo sapiens, UniProt P51681)
Experiment: MIP-1α radioligand binding assay (scintillation proximity, CHO cell membranes)
Details: negative log (base 10) of IC50, displacement of 0.1 nM iodinated MIP-1α, average if tested more than once
Protocol: The ability of compounds to inhibit the binding of MIP-1α was assessed by an in vitro radioligand binding assay. Membranes were prepared from Chinese hamster ovary cells which expressed the recombinant human CCR5 receptor. These membranes were incubated with 0.1 nM iodinated MIP-1α, scintillation proximity beads and various concentrations of the compounds of the invention in 96-well plates. The amount of iodinated MIP-1α bound to the receptor was determined by scintillation counting. Competition curves were obtained for compounds and the concentration of compound which displaced 50% of bound iodinated MIP-1α was calculated (IC50).
In Table XV the results are presented as Pic50 values. A Pic50 value is the negative log (to base 10) of the IC50 result, so an IC50 of 1 μM (that is 1×10^−6M) gives a Pic50 of 6. If a compound was tested more than once then the data below is an average of the probative tests results.

Pic50 | Pic50 (listed as I 8) | Pic50 (listed as III 1) | Compound
9.3 | – | – | CS(=O)(=O)c1ccc(S(=O)(=O)CCC2CCN(CC[C@@H](c3cc(F)cc(F)c3)C3CCSCC3)CC2)cc1
9.0 | – | – | CN(C)S(=O)(=O)N1CCC([C@@H](CCN2CCC(CCS(=O)(=O)c3ccc(S(C)(=O)=O)cc3)CC2)c2cc(F)cc(F)c2)CC1
8.85 | – | – | Cn1nnnc1COc1ccc(S(=O)(=O)CCC2CCN(CC[C@H](c3ccc(S(C)(=O)=O)cc3)c3cc(F)cc(F)c3)CC2)cc1
8.95 | – | – | CS(=O)(=O)c1ccc([C@@H](CCN2CCC(CS(=O)(=O)Cc3ccccc3)CC2)c2ccccc2)cc1
8.63 | – | – | CS(=O)(=O)N1CCC(C(CCN2CCC(CCS(=O)(=O)c3ccccc3)CC2)c2ccccc2)CC1 (centres unmarked)
– | 8.58 | 8.8 | CS(=O)(=O)c1ccc(S(=O)(=O)CCC2CCN(CCC(c3ccccc3)N3CCN(c4ccccc4)CC3)CC2)cc1 (single isomer, unassigned)
7.9 | – | – | CS(=O)(=O)c1ccc(S(=O)(=O)CCC2CCN(CCC(c3ccccc3)C3CCN(S(C)(=O)=O)CC3)CC2)cc1 (centres unmarked)
